In this experiment the test system is Sprague-Dawley female prepubertal rats (ovarian weight gain). Put plainly: Ovarian weight gain after HCG administration i.p. or i.c. to prepubertal rats. It counts as in vivo, rat. Conditions: for ME % / Ovary Weight (NOW) / PA %: single dose; for Ovary Weight (NOW): four days post treatment; for PA %: relative to standard I.P. 1000 U/kg in saline. The procedure:
HCG was administered in saline or submicron emulsion (SME), i.p. or i.c. (intracolonic) to anaesthetized Sprague-Dawley female prepubertal rats, 120 g. The rats were sacrificed four days post treatment and the reproductive organs weighed. The ovarian weight gain is a direct and ultimate pharmacological outcome of HCG treatment. Pharmacological effects after colonic administration of HCG in various vehicles was evaluated as PA%; this is defined as follows: [formula] where NOW is Normalized Ovarian Weight, D is the dose, ic indicates intracolonic administration, and iv intravenous administration.

For the substance “human chorionic gonadotropin [HCG in saline]”, the ovarian weight gain entry (1000 U/kg i.c.) was “no ovarian weight gain was observed”. Also, the ME % by setting is: (I.C., 1000 U/kg) 22%; (I.P., 333 U/kg) 147%; (I.P., 666 U/kg) 231%; (I.P., 1000 U/kg) 366%. Besides, the “Ovary Weight (NOW)” value by setting is: (I.C., 1000 U/kg) 9.0 mg/100 kg; (I.P., 333 U/kg) 18.3 mg/100 kg; (I.P., 666 U/kg) 24.5 mg/100 kg; (I.P., 1000 U/kg) 34.5 mg/100 kg. Besides, the PA % reads like this: (I.C., 1000 U/kg) 5%; (I.P., 333 U/kg) 120%; (I.P., 666 U/kg) 95%. Besides, for the setting “I.C., concluded from ovary response / PA%”, the “absorption after I.C. administration” value is listed as “apparently not absorbed”. In addition, the “effect on weight increase of the sex organs” value (multiple administrations i.c. to the colon of rats) is on record as “not effective at all”.
